Data on one substance can be found in US9295682B2, “Adjuvant immunotherapy for the preventive, curative or palliative treatment of chronic systemic diseases such as cancer, of clinical manifestations associated with diseases like cachexia and correction of adverse effects of drugs such as immunosuppression, neutropenia and lymphopenia, comprising …” (priority 2009, dated 2016).

The test system of this assay is Lewis lung carcinoma (3LL). The assay is described as follows: Lewis lung carcinoma (3LL) survival, 1st experiment (Table A). Conditions: 100 days; IM-2 0.5 mg/kg/day alone, IM-2 0.5 mg/kg + Il-2 0.05 μg/animal, or IL-2 0.1 μg/animal alone; i.p., 3 weekly cycles. In kind it is in vivo, C57B1/6 female mice. How it is done:
Treatments: All treatments began 24 hours after the inoculation of cancer cells.
Observation period: The animals were evaluated during an observation period of 100 days in the survival experiment.
Two batches of 20 mice (C57BL/6) each one, inoculated with 3 LL cells (6×10^5 cells/animal) were treated only with daily intraperitoneal injections of the biological response modifier (proteic aggregate of ammonium and magnesium phospholinoleate-palmitoleate anhydride), as follows: 5.0 mg/kg/daily dose (Table A—Group 1—IM-1) and 0.5 mg/kg/daily dose (Table A—Group 2—IM 2), applied in three 3 weekly cycles. The animals were followed up for 100 days.
The animals were followed up for 100 days.
The animals were followed up for 100 days, and the number of survivors was expressed in percentage.

Regarding Interleukin 2 (IL-2), the “% Survivors” value stood at 50%.
